One assay concerns the target Estrogen receptor (Homo sapiens, UniProt P03372). Kind of assay: Displacement of [3H]esterdiol from recombinant human full length ERalpha expressed in insect cells incubated for 45 to 90 mins by liquid scintillation counting method relative to control. (In general: Loss of bound radioactivity is the signal in a displacement assay; it reports binding, not function.)
The species entered for a further assay is Homo sapiens. Kind of assay: Selectivity index, ratio of inhibition of ERbeta to inhibition of recombinant human full length ERalpha expressed in insect cells.

Protein sequences, listed by entry. Tags and fused reporters are not part of them.
UniProt P03372, whole entry: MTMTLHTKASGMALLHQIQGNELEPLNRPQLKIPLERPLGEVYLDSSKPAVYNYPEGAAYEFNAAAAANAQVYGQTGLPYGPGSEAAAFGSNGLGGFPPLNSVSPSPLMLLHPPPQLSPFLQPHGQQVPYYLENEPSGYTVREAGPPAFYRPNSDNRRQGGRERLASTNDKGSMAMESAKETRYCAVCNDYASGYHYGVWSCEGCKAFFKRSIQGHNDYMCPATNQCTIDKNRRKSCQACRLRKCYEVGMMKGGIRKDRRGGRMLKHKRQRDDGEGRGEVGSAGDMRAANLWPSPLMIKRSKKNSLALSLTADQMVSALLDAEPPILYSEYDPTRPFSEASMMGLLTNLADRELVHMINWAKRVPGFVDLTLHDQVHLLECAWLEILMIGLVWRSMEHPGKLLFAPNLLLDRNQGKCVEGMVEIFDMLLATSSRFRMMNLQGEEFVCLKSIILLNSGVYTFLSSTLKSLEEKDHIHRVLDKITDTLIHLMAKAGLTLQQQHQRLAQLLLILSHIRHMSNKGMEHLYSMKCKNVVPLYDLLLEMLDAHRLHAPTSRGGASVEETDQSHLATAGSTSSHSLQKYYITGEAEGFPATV

As to `Cc1ccc(C(=O)c2sc3cc(O)ccc3c2Oc2ccc(OCCN3CC(CF)C3)cc2)c(C)c1`, at Estrogen receptor, the RBA stood at 120%.

As for `Cc1cc(F)cc(C)c1C(=O)c1sc2cc(O)ccc2c1Oc1ccc(OCCN2CC(CF)C2)cc1`, the RBA on Estrogen receptor was 59.6%. Also, the Ratio in the assay filed under Homo sapiens was below 4.

Turning to `Cc1cc(F)ccc1C(=O)c1sc2cc(O)ccc2c1Oc1ccc(OCCN2CC(CF)C2)cc1`, the RBA at Estrogen receptor was determined as 46.5%. In addition, the Ratio in the assay listed under Homo sapiens was below 4.

As to `Cc1cc(F)cc(C)c1C(=O)c1sc2cc(O)ccc2c1Oc1ccc(OC2CN(CCCF)C2)cc1`, the RBA at Estrogen receptor was determined as 27.8%. The Ratio in the assay listed under Homo sapiens was below 4.

With `O=C(c1ccc(O)cc1)c1sc2cc(O)ccc2c1Oc1ccc(OCCN2CC(CF)C2)cc1`, the RBA at Estrogen receptor was found to be 57%. Besides, the Ratio in the assay listed under Homo sapiens is below 4.

With `Cc1cc(O)ccc1C(=O)c1sc2cc(O)ccc2c1Oc1ccc(OCCN2CC(CF)C2)cc1`, on Estrogen receptor, the RBA stood at 21.9%. In the assay filed under Homo sapiens, the Ratio was below 4.

Take `Cc1cc(F)cc(C)c1C(=O)c1sc2cc(O)ccc2c1Oc1ccc(OC2CN(C3CC3)C2)cc1`: at Estrogen receptor, the RBA was 38.1%. Further, in the assay listed under Homo sapiens, the Ratio is below 4.

Consider `O=C(c1ccc(F)cc1)c1sc2cc(O)ccc2c1Oc1ccc(OCCN2CC(CF)C2)cc1`, for which the RBA at Estrogen receptor was 9.15%. Further, the Ratio in the assay filed under Homo sapiens is below 4.

As to `O=C(c1ccccc1)c1sc2cc(O)ccc2c1Oc1ccc(OCCN2CC(CF)C2)cc1`, the RBA at Estrogen receptor was 80.6%. In addition, the Ratio in the assay filed under Homo sapiens was below 4.

Regarding `Cc1cc(F)cc(C)c1C(=O)c1sc2cc(O)ccc2c1Oc1ccc(OCCN2CC[C@@H](CF)C2)cc1`, at Estrogen receptor, the RBA was determined as 32.6%. The Ratio in the assay listed under Homo sapiens was below 4.

Take `Cc1ccccc1C(=O)c1sc2cc(O)ccc2c1Oc1ccc(OCCN2CC(CF)C2)cc1`: the RBA at Estrogen receptor was 30.7%. In addition, in the assay filed under Homo sapiens, the Ratio is below 4.

Consider `Cc1ccccc1C(=O)c1sc2cc(O)ccc2c1Oc1ccc(OC2CN(CCCF)C2)cc1`, for which, on Estrogen receptor, the RBA came out at 91.8%. Moreover, the Ratio in the assay filed under Homo sapiens is below 4.

On to `O=C(c1cccc(F)c1)c1sc2cc(O)ccc2c1Oc1ccc(OCCN2CC(CF)C2)cc1`, for which the Ratio in the assay listed under Homo sapiens was below 4.
